Data from patent publication US10035789B2, “Compounds useful for treating disorders related to RET” (BLUEPRINT MEDICINES CORPORATION, priority 2016, dated 2018).
pIC50: −log10 of the molar value.

Protein sequences, listed by entry. Tags and fused reporters are not part of them. Residues count along the entry.
UniProt P07949, 29-1114: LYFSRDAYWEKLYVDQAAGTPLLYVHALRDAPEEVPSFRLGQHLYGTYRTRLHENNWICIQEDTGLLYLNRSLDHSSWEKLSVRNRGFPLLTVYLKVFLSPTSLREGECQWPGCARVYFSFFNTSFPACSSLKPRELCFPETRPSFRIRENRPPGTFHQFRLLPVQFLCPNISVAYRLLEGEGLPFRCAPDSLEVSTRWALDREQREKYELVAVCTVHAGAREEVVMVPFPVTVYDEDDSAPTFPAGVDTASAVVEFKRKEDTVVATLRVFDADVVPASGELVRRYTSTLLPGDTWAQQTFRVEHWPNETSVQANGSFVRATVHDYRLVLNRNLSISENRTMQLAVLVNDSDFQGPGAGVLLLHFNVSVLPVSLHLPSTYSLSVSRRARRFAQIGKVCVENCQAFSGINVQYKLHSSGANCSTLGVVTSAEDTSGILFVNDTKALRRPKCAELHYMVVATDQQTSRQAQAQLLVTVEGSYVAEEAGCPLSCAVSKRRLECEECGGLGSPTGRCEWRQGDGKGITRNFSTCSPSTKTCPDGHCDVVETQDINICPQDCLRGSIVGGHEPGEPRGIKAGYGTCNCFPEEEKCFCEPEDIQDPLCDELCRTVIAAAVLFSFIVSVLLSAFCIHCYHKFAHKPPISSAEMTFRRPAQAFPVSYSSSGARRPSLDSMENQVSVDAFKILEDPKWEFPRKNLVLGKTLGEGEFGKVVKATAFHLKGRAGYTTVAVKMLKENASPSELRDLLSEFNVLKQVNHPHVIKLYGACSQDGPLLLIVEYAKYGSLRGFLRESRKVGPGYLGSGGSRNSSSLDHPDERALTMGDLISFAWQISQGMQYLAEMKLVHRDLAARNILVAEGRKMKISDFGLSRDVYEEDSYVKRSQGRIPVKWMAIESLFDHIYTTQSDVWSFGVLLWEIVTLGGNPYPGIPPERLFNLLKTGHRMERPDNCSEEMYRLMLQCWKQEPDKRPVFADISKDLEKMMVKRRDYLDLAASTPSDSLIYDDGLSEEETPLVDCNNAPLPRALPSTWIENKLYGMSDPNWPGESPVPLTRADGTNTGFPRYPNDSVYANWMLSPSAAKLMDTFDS
UniProt P07949, 29-1114 V804L: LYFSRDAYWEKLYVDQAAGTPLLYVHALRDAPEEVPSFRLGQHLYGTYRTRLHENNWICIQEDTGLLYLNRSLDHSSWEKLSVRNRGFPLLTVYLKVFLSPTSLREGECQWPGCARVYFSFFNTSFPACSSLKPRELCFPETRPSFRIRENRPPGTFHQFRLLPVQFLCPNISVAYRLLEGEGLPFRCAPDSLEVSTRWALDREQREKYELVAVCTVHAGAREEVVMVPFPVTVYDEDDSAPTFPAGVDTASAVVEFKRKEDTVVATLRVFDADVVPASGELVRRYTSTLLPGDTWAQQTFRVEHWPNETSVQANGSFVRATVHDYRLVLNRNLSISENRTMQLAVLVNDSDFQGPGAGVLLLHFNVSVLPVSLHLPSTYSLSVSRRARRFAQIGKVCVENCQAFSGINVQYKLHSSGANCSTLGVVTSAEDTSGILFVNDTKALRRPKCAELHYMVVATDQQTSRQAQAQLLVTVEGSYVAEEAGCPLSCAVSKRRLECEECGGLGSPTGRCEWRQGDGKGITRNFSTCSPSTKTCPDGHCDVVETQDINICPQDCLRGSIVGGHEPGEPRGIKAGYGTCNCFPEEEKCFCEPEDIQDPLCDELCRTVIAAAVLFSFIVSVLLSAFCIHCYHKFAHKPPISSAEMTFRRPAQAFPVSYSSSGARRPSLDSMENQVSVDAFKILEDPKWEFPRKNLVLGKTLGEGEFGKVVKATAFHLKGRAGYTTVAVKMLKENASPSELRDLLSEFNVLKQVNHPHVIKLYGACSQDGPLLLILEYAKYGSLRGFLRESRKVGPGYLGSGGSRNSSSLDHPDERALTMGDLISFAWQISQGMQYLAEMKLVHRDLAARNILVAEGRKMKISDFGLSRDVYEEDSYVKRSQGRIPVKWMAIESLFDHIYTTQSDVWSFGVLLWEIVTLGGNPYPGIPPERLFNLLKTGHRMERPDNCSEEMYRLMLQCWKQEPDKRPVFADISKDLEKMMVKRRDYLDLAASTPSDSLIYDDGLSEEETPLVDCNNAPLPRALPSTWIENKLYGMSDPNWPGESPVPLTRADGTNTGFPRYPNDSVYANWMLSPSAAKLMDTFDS
UniProt P07949, 29-1114 V804M: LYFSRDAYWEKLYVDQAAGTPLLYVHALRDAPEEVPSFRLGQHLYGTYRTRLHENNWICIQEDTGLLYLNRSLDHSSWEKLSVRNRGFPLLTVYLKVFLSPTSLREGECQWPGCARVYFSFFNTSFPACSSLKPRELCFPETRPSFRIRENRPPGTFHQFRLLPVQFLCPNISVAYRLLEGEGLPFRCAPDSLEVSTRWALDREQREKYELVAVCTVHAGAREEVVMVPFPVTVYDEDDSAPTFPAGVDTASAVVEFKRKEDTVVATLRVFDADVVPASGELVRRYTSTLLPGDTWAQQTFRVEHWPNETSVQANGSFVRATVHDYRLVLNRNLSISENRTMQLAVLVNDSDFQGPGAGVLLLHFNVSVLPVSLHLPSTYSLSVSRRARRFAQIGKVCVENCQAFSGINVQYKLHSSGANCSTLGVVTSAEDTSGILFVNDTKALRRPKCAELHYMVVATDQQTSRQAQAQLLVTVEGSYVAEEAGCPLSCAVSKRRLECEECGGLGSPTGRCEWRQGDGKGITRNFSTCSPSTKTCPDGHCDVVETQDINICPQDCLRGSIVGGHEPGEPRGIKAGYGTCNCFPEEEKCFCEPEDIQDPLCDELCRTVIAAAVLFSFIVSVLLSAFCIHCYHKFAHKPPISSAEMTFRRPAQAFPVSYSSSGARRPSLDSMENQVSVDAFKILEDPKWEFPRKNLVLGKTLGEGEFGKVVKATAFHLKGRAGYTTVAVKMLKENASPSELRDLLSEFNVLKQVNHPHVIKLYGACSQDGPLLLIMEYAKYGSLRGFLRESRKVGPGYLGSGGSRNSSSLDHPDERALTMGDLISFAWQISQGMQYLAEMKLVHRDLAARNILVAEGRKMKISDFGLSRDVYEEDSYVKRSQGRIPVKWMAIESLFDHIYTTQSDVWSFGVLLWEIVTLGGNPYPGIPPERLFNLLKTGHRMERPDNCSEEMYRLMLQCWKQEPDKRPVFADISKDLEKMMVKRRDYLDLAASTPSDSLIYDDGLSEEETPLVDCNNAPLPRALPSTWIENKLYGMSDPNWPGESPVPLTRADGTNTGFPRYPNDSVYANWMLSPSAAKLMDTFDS

Columns and labels:
wild type RET = target: T1, wild type RET (Homo sapiens, UniProt P07949); assay: RET Wild Type Assay at KM (Caliper electrophoretic mobility shift); format: biochemical
T1 construct: purchased ProQinase 1090-0000-1

RET V804L = target: T2, RET V804L (Homo sapiens, UniProt P07949, V804L); assay: RET V804L Gatekeeper Mutant Assay at KM (Caliper electrophoretic mobility shift); conditions: wild-type RET inhibitors, Table 2; read-out: RET V804L Biochemical IC50
T2 construct: purchased ProQinase 1096-0000-1

RET V804M = RET V804M (Homo sapiens, UniProt P07949, V804M); assay: RET V804M biochemical assay; conditions: wild-type RET inhibitors, Table 2

CNC(=O)c1cc(Oc2ccc(NC(=O)Nc3ccc(Cl)c(C(F)(F)F)c3)c(F)c2)ccn1 [Regorafenib, reference compound]
pIC50 (wild type RET): 8.29 | pIC50 (RET V804L): 7.53 | pIC50 (RET V804M): 7.33
